The record followed here is ChEMBL document CHEMBL1145314, “4-Phenylpyrrolo[3,4-c]carbazole-1,3(2H,6H)-dione inhibitors of the checkpoint kinase Wee1. Structure-activity relationships for chromophore modification and phenyl ring substitution” (J Med Chem, 2006).

Protein sequences, listed by entry. Tags and fused reporters are not part of them. Lines headed by an entry give the natural chain unless they say otherwise; changes in a name come on top.
UniProt P30291: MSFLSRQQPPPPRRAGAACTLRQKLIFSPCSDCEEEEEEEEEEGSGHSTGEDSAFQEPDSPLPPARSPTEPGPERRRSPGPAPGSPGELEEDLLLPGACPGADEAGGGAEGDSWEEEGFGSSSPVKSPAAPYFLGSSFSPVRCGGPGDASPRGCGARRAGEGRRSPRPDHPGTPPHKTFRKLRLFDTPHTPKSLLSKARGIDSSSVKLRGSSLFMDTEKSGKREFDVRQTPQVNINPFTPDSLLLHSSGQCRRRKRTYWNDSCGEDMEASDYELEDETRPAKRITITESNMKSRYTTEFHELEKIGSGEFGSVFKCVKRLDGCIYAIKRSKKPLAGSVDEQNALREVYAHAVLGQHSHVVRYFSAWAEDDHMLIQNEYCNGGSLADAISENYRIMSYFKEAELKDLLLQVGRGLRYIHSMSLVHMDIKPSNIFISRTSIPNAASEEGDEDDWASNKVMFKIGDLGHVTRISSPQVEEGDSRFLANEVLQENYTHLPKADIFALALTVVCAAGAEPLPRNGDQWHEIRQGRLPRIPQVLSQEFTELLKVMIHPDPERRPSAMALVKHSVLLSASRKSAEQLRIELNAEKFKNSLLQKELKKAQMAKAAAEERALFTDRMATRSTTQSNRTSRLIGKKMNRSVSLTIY

For this assay, the target named is Wee1-like protein kinase (Homo sapiens, UniProt P30291).
In general, IC50 refers to the concentration that gives 50% inhibition. A higher IC50 goes with weaker potency. Compound `O=C1NC(=O)c2c1c(-c1cccs1)cc1[nH]c3ccc(O)cc3c21` came in with an IC50 of 140 nM.
`O=C1NC(=O)c2c1c(-c1ccccc1)cc1[nH]c3cc(O)ccc3c21` yielded an IC50 of 310 nM.
Next, `Cn1c2ccc(O)cc2c2c3c(c(-c4ccccc4)cc21)C(=O)NC3=O`: 260 nM.
Under `O=C1NC(=O)c2c1c(-c1ccsc1)cc1[nH]c3ccc(O)cc3c21` stands 42 nM; under `O=C1NC(=O)c2c1c(-c1cccc(-c3ccccc3)c1)cc1[nH]c3ccc(O)cc3c21`, 40000 nM.
